From PubChem BioAssay (EPA / NIEHS) come the findings set out here.

The chains behind the UniProt entries cited, without tags or fusion partners.
UniProt P17676, whole entry: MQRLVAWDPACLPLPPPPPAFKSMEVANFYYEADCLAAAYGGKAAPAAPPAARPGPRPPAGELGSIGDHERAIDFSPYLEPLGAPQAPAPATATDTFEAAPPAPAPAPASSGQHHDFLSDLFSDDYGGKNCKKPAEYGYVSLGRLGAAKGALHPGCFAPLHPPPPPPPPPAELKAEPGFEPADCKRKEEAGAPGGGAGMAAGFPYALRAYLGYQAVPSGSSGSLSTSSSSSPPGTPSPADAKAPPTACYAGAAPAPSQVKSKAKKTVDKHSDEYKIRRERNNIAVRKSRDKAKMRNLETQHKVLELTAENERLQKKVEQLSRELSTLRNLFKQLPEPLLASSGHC

The entries are a selection whose mix differs from that of the whole data set. Active and inactive are the calls of the source. How the source made its calls: active means hit-call score of the fitted dose curve at least 0.9, where 1 is the maximum; inactive means score below 0.9.

The target of the experiment is CCAAT/enhancer-binding protein beta (Homo sapiens) (UniProt P17676). The experiment in a line: ATG_C_EBP_CIS: Attagene CIS-FACTORIAL HepG2 Assay for human CCAAT/Enhancer Binding Protein (C/EBP) beta (AID 2282927). Particulars: HepG2 Attagene cis-factorial transcription factor reporter; actives raise or lower the signal. The procedure: ATG_CIS is a cell-based, multiplexed-readout assay that uses HepG2, a human liver cell line, with measurements taken at 24 hours after chemical dosing in a 24-well plate.ATG_C_EBP_CIS is one of 52 assay component(s) measured or calculated from the ATG_CIS assay. It is designed to make measurements of mRNA induction, a form of inducible reporter, as detected with fluorescence intensity signals by Reverse transcription polymerase chain reaction (RT-PCR) and Capillary electrophoresis technology.Data from the assay component ATG_C_EBP_CIS was analyzed into 1 assay endpoint. This assay endpoint, ATG_C_EBP_CIS, was analyzed with bidirectional fitting relative to DMSO as the negative control and baseline of activity. Using a type of inducible reporter, measures of mRNA for gain or loss-of-signal activity can be used to understand the reporter gene at the transcription factor-level as they relate to the gene CEBPB. Furthermore, this assay endpoint can be referred to as a primary readout, because this assay has produced multiple assay endpoints where this one serves a reporter gene function. To generalize the intended target to other relatable targets, this assay endpoint is annotated to the dna binding intended target family, where the subfamily is basic leucine zipper.
Human liver HepG2 cells are transiently transfected with multiple reporter transcription units (MRTUs) in 6-well plates using FuGene 6 reagent (Roche; 3 ml FuGene/1 mg DNA). The MRTU constructs are regulated by a cis-regulating element (promoter). […] A major difference between the CIS and TRANS system is that in CIS activities of endogenous TFs are measured, whereas the TRANS assay evaluates changes in activities of exogenous, chimeric NR-Gal4 proteins. […] At the end of 24 hour incubation, total RNA was isolated using TriZol reagent (Invitrogen). The isolated RNA is then reverse-transcribed using oligo(dT) primer and Mo-MLV reverse transcriptase (Invitrogen) with DNAse I (Ambion) treatment for 30 min. The one-tenth of the produced cDNA was amplified by PCR using Taq DNA polymerase (Invitrogen) and two reporter sequence-specific primers. The PCR products were fluorescently labeled by primer extension with 6-arboxyfluorescein (6-FAM) 5'-labeled reporter sequence-specific primer (2 min at 95 C, 20 s at 68 C and 10 min at 72 C) and these products were digested with 5U of HpaI (New England Biolabs) for 2h at 37 C. The fragments were purified using Qiaquick PCR columns (Qiagen), analyzed on an ABI 3130xL genetic analyzer (Applied Biosystems) with peak positions identified by using a set of X-rhodamine (ROX)-labeled MapMarker1000 molecular weight standards (BioVentures). The raw capillary electrophoresis data was processed using Attagraph software (Attagene).
Consider `Cc1cccc([N+](=O)[O-])c1[N+](=O)[O-]`, for which the result was inactive. For `COc1ccc([N+](=O)[O-])cc1[N+](=O)[O-]`, the result was inactive. The value for `COP(C)(=O)OC` was “inactive”; that for `N#CBr` was “inactive”; that for `Cc1ccc([N+](=O)[O-])c([N+](=O)[O-])c1` was “inactive”. The value for `Cc1ccc([N+](=O)[O-])cc1[N+](=O)[O-]` was “inactive”. The value for `O=[N+]([O-])OCC(CO[N+](=O)[O-])(CO[N+](=O)[O-])CO[N+](=O)[O-]` was “inactive”. Consider `CN(C)CCCl`, for which the result was inactive. The value for `CC(C)OP(C)(=O)OC(C)C` was “inactive”; that for `Cc1c([N+](=O)[O-])cccc1[N+](=O)[O-]` was “inactive”; that for `O=[N+]([O-])c1cccc([N+](=O)[O-])c1` was “inactive”. With `CC(C)N(CCO)C(C)C` the entry was “inactive”.
